One compound from ChEMBL document CHEMBL1759857, “Synthesis and evaluation of isatin analogs as caspase-3 inhibitors: introduction of a hydrophilic group increases potency in a whole cell assay” (Bioorg Med Chem Lett, 2011) can be followed below.

The assay concerns the target T1, Caspase-7 (Homo sapiens, UniProt P55210).
T1 sequence (P55210 whole entry): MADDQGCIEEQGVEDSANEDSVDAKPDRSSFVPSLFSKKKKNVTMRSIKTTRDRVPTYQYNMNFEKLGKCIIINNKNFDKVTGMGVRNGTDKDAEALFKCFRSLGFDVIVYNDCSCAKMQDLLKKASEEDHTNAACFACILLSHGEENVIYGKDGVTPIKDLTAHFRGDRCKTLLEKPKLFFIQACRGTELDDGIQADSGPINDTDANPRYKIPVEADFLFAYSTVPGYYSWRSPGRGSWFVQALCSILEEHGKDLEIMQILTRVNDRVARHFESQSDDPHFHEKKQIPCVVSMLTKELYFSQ
Kind of assay: Inhibition of caspase 7 by fluorometric assay.

With `O=C1C(=O)N(Cc2cn(CCF)nn2)c2ccc(S(=O)(=O)N3CCC[C@H]3COc3cccnc3)cc21`, the IC50 (usually the midpoint of a concentration-inhibition curve) amounted to 3.8 nM.
